Molecules are shown by their SMILES.

Sequences of proteins named here, by UniProt entry; tags and fusion partners are left off.
UniProt Q99685, whole entry: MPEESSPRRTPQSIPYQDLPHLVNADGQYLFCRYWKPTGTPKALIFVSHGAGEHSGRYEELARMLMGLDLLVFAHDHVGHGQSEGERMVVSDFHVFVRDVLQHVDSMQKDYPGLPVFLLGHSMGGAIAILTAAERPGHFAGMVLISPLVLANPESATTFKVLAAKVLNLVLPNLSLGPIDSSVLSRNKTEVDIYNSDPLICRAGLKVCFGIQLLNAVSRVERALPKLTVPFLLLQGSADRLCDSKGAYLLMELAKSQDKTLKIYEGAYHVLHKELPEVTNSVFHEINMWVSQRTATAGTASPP

This test addresses MGL activity in HeLa cell homogenate (Homo sapiens, UniProt Q99685). Put plainly: 2-AG Accumulation Assay in HeLa cell homogenate. The note with it: 100 nM MAFP (positive control); about 3.4 pmol/sample in absence of MAFP. The format is biochemical.

Compound `CCCCC/C=C\C/C=C\C/C=C\C/C=C\CCCCOP(=O)(F)OOC` (stereo not shown) had a 2-AG levels of 174 pmol/sample.
